Source: patent US6521650B1, “Amines as pharmaceutical agents” (Pfizer, Inc., priority 1997, dated 2003)

Amino acid sequences for entries named in this document (tags omitted).
UniProt O77773, entry or part of it limits assumed: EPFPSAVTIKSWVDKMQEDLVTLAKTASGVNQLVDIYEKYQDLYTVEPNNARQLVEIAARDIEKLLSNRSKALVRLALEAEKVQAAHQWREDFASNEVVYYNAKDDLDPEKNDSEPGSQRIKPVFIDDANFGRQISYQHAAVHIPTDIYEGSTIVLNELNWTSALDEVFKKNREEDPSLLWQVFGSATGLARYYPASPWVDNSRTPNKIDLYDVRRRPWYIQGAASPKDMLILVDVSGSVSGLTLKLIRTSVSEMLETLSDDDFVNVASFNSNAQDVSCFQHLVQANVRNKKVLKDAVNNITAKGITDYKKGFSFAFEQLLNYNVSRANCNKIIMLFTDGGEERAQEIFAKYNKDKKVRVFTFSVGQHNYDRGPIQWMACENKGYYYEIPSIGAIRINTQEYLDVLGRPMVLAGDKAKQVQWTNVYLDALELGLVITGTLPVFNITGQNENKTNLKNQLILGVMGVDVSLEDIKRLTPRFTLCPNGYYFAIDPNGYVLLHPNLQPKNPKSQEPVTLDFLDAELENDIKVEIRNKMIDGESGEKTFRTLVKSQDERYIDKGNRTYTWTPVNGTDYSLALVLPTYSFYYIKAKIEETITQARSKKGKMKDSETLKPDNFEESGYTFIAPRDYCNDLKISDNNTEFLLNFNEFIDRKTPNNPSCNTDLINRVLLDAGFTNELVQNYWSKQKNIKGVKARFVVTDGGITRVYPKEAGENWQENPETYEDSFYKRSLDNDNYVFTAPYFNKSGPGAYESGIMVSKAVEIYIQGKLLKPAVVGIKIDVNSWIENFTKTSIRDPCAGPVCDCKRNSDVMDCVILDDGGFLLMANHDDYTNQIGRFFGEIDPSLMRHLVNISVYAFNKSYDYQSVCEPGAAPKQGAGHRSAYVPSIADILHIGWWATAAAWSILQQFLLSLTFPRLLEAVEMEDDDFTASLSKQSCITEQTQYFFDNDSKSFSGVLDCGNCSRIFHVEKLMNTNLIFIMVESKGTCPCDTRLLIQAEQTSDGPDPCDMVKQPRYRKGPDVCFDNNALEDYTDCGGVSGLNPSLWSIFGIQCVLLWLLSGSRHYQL

Molecular target: α2δ subunit derived from porcine brain tissue (Sus scrofa, UniProt O77773)
Experiment: radioligand binding assay using [3H]gabapentin and the α2δ subunit
Conditions: read-out: α2δ Assay IC50, [3H]gabapentin, tested form: HCl

**Q.** Which IC50 does the source give for CC(C)CC(CN)Cc1noc(=O)[nH]1 (stereo not shown) here?
**A.** The IC50 was 1520 nM.
